From patent US9849116B2 (KNOPP BIOSCIENCES LLC, priority 2008, dated 2017)

Experiment: Phase I ascending single-dose safety and pharmacokinetic study
Format: in vivo
Conditions: human, plasma; single 150 mg oral dose, fed; read-out: t½ (mean ± SD) (converted)

## CCCN[C@@H]1CCc2nc(N)sc2C1 [(R)-pramipexole, (6R)-4,5,6,7-tetrahydro-N6-propyl-2,6-benzothiazole-diamine]
  half-life: 6.28 ± 1.48 h
